Test [1] concerns the target T1, SARS-CoV-2 3CLpro (Severe acute respiratory syndrome coronavirus 2, UniProt P0DTD1). The settings on record: ref Zhu, Wei et al. ACS pharmacology & translational science vol. 3,5 (2020): 1008-1016, cited from earlier work.
The target of test [2] is T1, SARS-CoV-2 3CLpro.

What is called pIC50 is −log10 of the IC50, conventionally taken in molar units. In general, IC50 refers to the concentration that gives 50% inhibition.

Regarding `CC(=O)Nc1cnc(SSc2ccc(Br)cc2)s1` [CMP23], the pIC50 on SARS-CoV-2 3CLpro [1] (from literature IC50) is reported as 5.187. Also, the IC50 at SARS-CoV-2 3CLpro [1] (unit not printed (pIC50 corresponds to µM)) was 6.5 µM.
As to `O=C(Nc1ccc(N(Cc2ccsc2)C(=O)Cn2nnc3ccccc32)cc1)C1CC1` [CMP195], the “SI*pIC50” value on SARS-CoV-2 3CLpro [2] came to 5.539.

(Values after article PMC8611036, “An integrated method for optimized identification of effective natural inhibitors against SARS-CoV-2 3CLpro” (Scientific Reports, 2021).)
